{"source": "patent US20160106708A1", "about": "“USE OF ANTIOXIDANTS FOR THE TREATMENT OF COGNITIVE AND BEHAVIOURAL DISORDERS IN INDIVIDUALS WITH FRAGILE X SYNDROME” (Servicio Andaluz de Salud, priority 2010, published 2016)", "key": {"FMR1-KO mice [1]": {"system": "FMR1-KO mice", "experiment": "Measurement of corticosterone in serum", "format": "in vivo, mouse", "settings": "FMR1-KO mice vs WT controls under the same treatment", "text": "FIG. 3. Concentration of corticosterone in mouse serum (ng/ml)."}, "FMR1-KO mice [2]": {"system": "FMR1-KO mice", "experiment": "Level of lipid peroxidation (TBARS) in cerebral membranes", "format": "in vivo, mouse", "settings": "FMR1-KO vs WT under treatment; tianeptine: both genotypes vs saline control", "text": "FIG. 4. Concentration of TBARS in mouse cerebral membranes (nmol/mg protein)."}}}
{"compound": "CN1c2ccccc2C(NCCCCCCC(=O)O)c2ccc(Cl)cc2S1(=O)=O", "note": "(centres unmarked) [Tianeptine]", "values": [{"measurement": "Concentration of corticosterone in serum", "setting": "FMR1-KO mice [1]", "value": "not capable of equalling the levels of this hormone"}, {"measurement": "Levels of TBARS in cerebral membranes", "setting": "FMR1-KO mice [2]", "value": "an increase in the values of TBARS"}]}
